Patent US9011988B2, “Liquid-crystal compound, liquid-crystal composition, light absorption anisotropic film, and liquid-crystal display device” (Fujifilm Corporation, priority 2010, dated 2015)

Assay: Solubility in chloroform / preparation of chloroform coating liquid
Assay type: physicochemical
Details: 1 weight part compound in 99 weight parts of chloroform
Experimental: The solubility of these compounds in chloroform was measured.
Following stirring and dissolution, a liquid-crystal composition coating liquid was obtained. Each of the coating liquids was then coated on an alignment film that had been formed on a glass substrate and had been rubbed. Subsequently, the chloroform was allowed to dry naturally at room temperature, yielding individual light absorption anisotropic films. The polyvinylalcohol indicated below was employed as the alignment film.

**Q.** Which “preparation of coating liquid” value does the source give for `CCCCCCOc1ccc(N=Nc2ccc(C=Cc3cc(OC)c(C=Cc4ccc(N=Nc5ccc(OCCCCCC)cc5)cc4)cc3OC)cc2)cc1` [A-34] here?
**A.** impossible to prepare a coating liquid
